The source of these data is PubChem BioAssay AID1422 (Emory University Molecular Libraries Screening Center, 2008).

By UniProt entry, the sequences of proteins in these tests, tags left out.
UniProt P43116, whole entry: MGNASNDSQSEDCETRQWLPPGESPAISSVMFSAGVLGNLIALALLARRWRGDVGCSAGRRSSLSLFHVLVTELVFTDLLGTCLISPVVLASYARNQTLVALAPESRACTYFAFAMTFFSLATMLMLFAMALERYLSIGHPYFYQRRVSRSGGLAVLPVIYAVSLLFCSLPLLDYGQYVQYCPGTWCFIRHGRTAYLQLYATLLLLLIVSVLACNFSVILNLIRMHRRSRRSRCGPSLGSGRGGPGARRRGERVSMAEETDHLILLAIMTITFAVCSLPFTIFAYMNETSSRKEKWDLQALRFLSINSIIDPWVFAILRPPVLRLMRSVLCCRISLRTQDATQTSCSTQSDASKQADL

Molecules are shown by their SMILES. This is a selection; strong and weak results do not stand in their true shares. Active and inactive are the calls of the source.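 How the source made its calls: active means percent inhibition above 40 after rounding to a whole number; inactive means the rest.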

The assay has as its target Prostaglandin E2 receptor EP2 subtype (Homo sapiens) (UniProt P43116). Put plainly: blockers of PGE2-driven EP2 cAMP signalling – TR-FRET cAMP, C6 glioma cells, primary screen (AID 1422).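 Further: rat C6 glioma host cells with rolipram phosphodiesterase inhibitor present; the protocol text gives 20 µM as final concentration.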 Particulars: C6 glioma cells expressing human EP2, cAMP TR-FRET; at 25 µM; stronger effect = higher value; cells stimulated with saturating PGE2. (In general: Time-resolved FRET reads energy transfer from a long-lived donor to a nearby acceptor.)
For orientation: inhibition means the change of the read-out against control, counted positive when it falls. Take `O=C(O)C1(Nc2ccccc2)CCN(Cc2ccccc2)CC1`: the inhibition was inactive: 11.5%.
To `CC(C)(C)OC(=O)N1CCC(Nc2ccccc2)CC1` belongs inactive: -0.72%; to `CCOc1ncccc1C(=O)NCC1(N2CCOCC2)CCCCC1`, inactive: 2.79%.
To `CCCOc1ccc(C)cc1CN(CCCl)CCCl` belongs inactive: 14.4%; to `CCC(CO)(C(=O)OC1CN2CCC1CC2)c1ccccc1` (stereo unspecified), inactive: 10.9%.
For the molecule `COc1cc(OC)cc(C(=O)NCC2(N3CCOCC3)CCCCC2)c1`, the inhibition was inactive: 5.98%.
On to `Fc1ccccc1NC1CCN(Cc2ccccc2)CC1`, for which the inhibition was inactive: -2.07%.
On to `CN(C)c1ccc(C(=O)NCC2(N3CCCCC3)CCCCC2)cc1`, for which the inhibition was inactive: 6.96%.
For the molecule `CCN1CCC(Nc2cccc(F)c2)CC1`, the inhibition is inactive: 5.62%.
Take `N#Cc1ccc(C(=O)NCC2(N3CCCCC3)CCCCC2)cc1`: the inhibition was inactive: 5.37%.
With `c1ccc(CN2CCC(Nc3ccccc3)CC2)cc1`, the inhibition is inactive: 10.9%.
Regarding `COc1ccc(C(=O)NCC2(N3CCOCC3)CCCCC2)cc1OC`, the inhibition is inactive: 10.9%.
To `O=C(OC1CN2CCC1CC2)C1c2ccccc2C=Cc2ccccc21` (stereo unspecified) belongs inactive: 6.91%; to `CN(C)c1cccc(C(=O)NCC2(N3CCCCC3)CCCCC2)c1`, inactive: 6.43%.
On to `COc1ccc(CN(CCCl)CCCl)cc1Cl`, for which the inhibition is inactive: 14.1%.
Take `CC(C)c1ccc(NC2CCN(C(=O)OC(C)(C)C)CC2)cc1`: the inhibition is inactive: 8.27%.
Consider `CN1CCC(Nc2cccc(F)c2)CC1`, for which the inhibition was inactive: 4.15%.
In the case of `NC1CCCCC1.NP(=O)(O)N(CCCl)CCCl`, the inhibition was inactive: 6.48%.
In the case of `O=C(NCC1(N2CCCCC2)CCCCC1)c1cccc([N+](=O)[O-])c1`, the inhibition was inactive: 8.37%.
Consider `N#CC1(Nc2ccccc2)CCN(CCc2ccccc2)CC1`, for which the inhibition is inactive: 10.2%.
Regarding `COc1ccc(NC2CCN(C(=O)OC(C)(C)C)CC2)cc1`, the inhibition is inactive: 5.88%.
To `CN1CCN(CCOC(=O)C(O)(c2ccccc2)c2ccccc2)CC1` belongs inactive: 8.65%; to `O=C(NCC1(N2CCOCC2)CCCCC1)c1cc(=O)[nH]c2ccccc12`, inactive: 16.4%; to `COc1ccc(NC2CCN(CCc3ccccc3)CC2)c(OC)c1`, inactive: 6.11%.
`CCOc1ccc(C)cc1CN(CCCl)CCCl`: the inhibition was inactive: 13.9%.
As to `Cc1ccc(OCC(C)C)c(CN(CCCl)CCCl)c1`, the inhibition was inactive: 6.39%.
To `COc1ccc(C(=O)NCC2(N3CCCCC3)CCCCC2)c(OC)c1OC` belongs inactive: 9.86%; to `CCOC(=O)N1CCC(Nc2ccc(OC)cc2)CC1`, inactive: 4.94%.
As to `N#CC1(Nc2ccccc2)CCN(Cc2ccccc2)CC1`, the inhibition was inactive: 7.91%.
For the molecule `O=C(OC1CN2CCC1CC2)C1c2ccccc2Oc2ccccc21` (stereo unspecified), the inhibition is inactive: 1.39%.
For `O=C(NCC1(N2CCOCC2)CCCCC1)c1cc2ccccc2o1`, the inhibition is inactive: 16.1%.
